{"source": "paper PMC9603901", "about": "“Therapeutic Potential of Antimicrobial Peptide PN5 against Multidrug-Resistant E. coli and Anti-Inflammatory Activity in a Septic Mouse Model” (Microbiology Spectrum, 2022)", "key": {"P. aeruginosa ATCC 27853": {"tested_on": "P. aeruginosa ATCC 27853", "assay_type": "cell-based, Pseudomonas aeruginosa", "settings": "microdilution, NB, 18 to 24 h, 37°C, three independent experiments", "description": "(§1) Bacterial cells were cultured at 37°C in the appropriate culture media with shaking (180 rpm). Luria-Bertani broth (LB) (244620; BD Difco) was used for E. coli ATCC 25922, ASEC strains, and B. subtilis KCTC 2217. Nutrient broth (NB) (234000; BD Difco) was used for P. aeruginosa ATCC 27853, S. Typhimurium KCTC 1926, and A. baumannii KCTC 2508. Tryptic soy broth (TSB) (211825; BD Difco) was used for S. aureus ATCC 25923. Finally, brain heart infusion (BHI) (237500; BD Difco) was used for L. monocytogenes KCTC 3710. The antimicrobial activity of each peptide was determined using microdilution assays. To this end, 2-fold serial dilution series of each peptide (from 1 to 64 μM) were added to duplicate media with 10 mM sodium phosphate buffer (pH 7.4). Fifty microliters of the peptide and antibiotic solution was added to each well of a 96-well plate (32096, surface nontreatment; SPL Life Sciences). Then, 50 μL of 2 × 10^5 CFU mL^−1 of bacteria was added to each well, and the samples were incubated for 18 to 24 h without shaking at 37°C."}, "S. aureus ATCC 25923": {"tested_on": "S. aureus ATCC 25923", "assay_type": "cell-based, Staphylococcus aureus", "settings": "microdilution, TSB, 18 to 24 h, 37°C, three independent experiments", "description": "as §1"}, "E. coli ATCC 25922": {"tested_on": "E. coli ATCC 25922", "assay_type": "cell-based, Escherichia coli", "settings": "microdilution, LB, 2 × 10^5 CFU mL^−1, 18 to 24 h, 37°C, three independent experiments", "description": "as §1"}}}
{"smiles": "CC[C@H](C)[C@H](NC(=O)CN)C(=O)NCC(=O)N[C@@H](C)C(=O)N[C@H](C(=O)N[C@@H](CC(C)C)C(=O)N[C@@H](CCCCN)C(=O)N[C@H](C(=O)N[C@@H](CC(C)C)C(=O)N[C@H](C(=O)N[C@H](C(=O)NCC(=O)N[C@@H](CC(C)C)C(=O)N1CCC[C@H]1C(=O)N[C@@H](C)C(=O)N[C@@H](CC(C)C)C(=O)N[C@H](C(=O)N[C@@H](CO)C(=O)N[C@@H](Cc1c[nH]c2ccccc12)C(=O)N[C@H](C(=O)N[C@@H](CCCCN)C(=O)N[C@@H](CCCNC(=N)N)C(=O)N[C@@H](CCCCN)C(=O)N[C@@H](CCCNC(=N)N)C(=O)N[C@@H](CCC(N)=O)C(=O)N[C@@H](CCC(N)=O)C(N)=O)[C@@H](C)CC)[C@@H](C)CC)[C@@H](C)O)[C@@H](C)O)C(C)C)C(C)C", "note": "[Melittin]", "values": [{"measurement": "MIC", "setting": "P. aeruginosa ATCC 27853", "value": 4, "unit": "µM"}, {"measurement": "MIC", "setting": "S. aureus ATCC 25923", "value": 2, "unit": "µM"}, {"measurement": "MIC", "setting": "E. coli ATCC 25922", "value": "2 (5.69) μM"}]}
